Molecules are shown by their SMILES. Several values for one entry are separate records, joined by “and”; a condition that tells them apart may be missing. Equal values may be shown once. Bounds are passed on as bounds.

Amino acid sequences for entries named in this document (tags omitted). A change or cut given only in a name is not applied to a line headed by its entry.
UniProt Q9Y297: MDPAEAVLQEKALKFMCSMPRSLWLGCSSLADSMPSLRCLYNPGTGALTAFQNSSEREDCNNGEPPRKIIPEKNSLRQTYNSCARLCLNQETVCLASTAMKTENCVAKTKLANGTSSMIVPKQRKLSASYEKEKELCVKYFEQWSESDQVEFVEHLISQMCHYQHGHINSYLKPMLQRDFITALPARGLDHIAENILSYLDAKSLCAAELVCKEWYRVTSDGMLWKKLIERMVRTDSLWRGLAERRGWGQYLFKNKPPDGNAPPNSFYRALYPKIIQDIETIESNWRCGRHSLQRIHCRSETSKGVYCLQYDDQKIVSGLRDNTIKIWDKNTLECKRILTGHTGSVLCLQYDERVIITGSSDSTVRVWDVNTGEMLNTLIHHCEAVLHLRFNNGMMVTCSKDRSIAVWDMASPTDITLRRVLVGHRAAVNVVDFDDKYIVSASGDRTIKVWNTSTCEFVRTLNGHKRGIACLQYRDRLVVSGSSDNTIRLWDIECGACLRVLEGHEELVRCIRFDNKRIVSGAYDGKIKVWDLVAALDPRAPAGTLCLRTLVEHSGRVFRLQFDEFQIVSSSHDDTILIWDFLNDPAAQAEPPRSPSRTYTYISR

This assay concerns the target βTrCP (Homo sapiens, UniProt Q9Y297). The assay can be described thus: Fluorescence polarisation (FP) binding assay with fluorescein-tagged IκB peptide. Particulars: Tables 1, 3, 7, 8; 10 nM fluorescein-tagged IκB peptide. (In general: Polarisation of emitted light reports the rotation of a fluorescent probe.)
The IC50 is the midpoint of a concentration-inhibition curve. Read a low IC50 as greater potency in that assay. As to `NC(=O)CC[C@H](N)C(=O)NCC(=O)N[C@@H](Cc1ccccc1)C(=O)N[C@@H](Cc1ccccc1)C(=O)N[C@@H](CCC(=O)O)C(N)=O` [QGFFE-NH2], the IC50 is > 100 µM. As for `C[C@H](N)C(=O)NCC(=O)N[C@@H](Cc1ccc(O)cc1)C(=O)N[C@@H](Cc1ccccc1)C(=O)N[C@@H](CCC(=O)O)C(N)=O` [AGYFE-NH2], the IC50 was > 100 µM.

For the compound `C[C@H](NC(=O)[C@@H](N)CCC(=O)O)C(=O)N[C@@H](Cc1ccccc1)C(=O)N[C@@H](Cc1ccccc1)C(=O)N[C@@H](CCC(=O)O)C(N)=O` [EAFFE-NH2], the IC50 is 28 µM and > 100 µM. For `C[C@H](NC(=O)[C@@H](N)CCC(=O)O)C(=O)N[C@@H](Cc1ccc(O)cc1)C(=O)N[C@@H](Cc1ccccc1)C(=O)N[C@@H](CCC(=O)O)C(N)=O` [EAYFE-NH2], the IC50 is > 100 µM. Turning to `NC(=O)CC[C@H](N)C(=O)NCC(=O)N[C@@H](Cc1ccc(O)cc1)C(=O)N[C@@H](Cc1ccccc1)C(=O)N[C@@H](CCC(=O)O)C(N)=O` [QGYFE-NH2], the IC50 was > 100 µM.

(Values after patent US20190106460A1, “BINDING INHIBITORS OF THE BETA. TRANSDUCIN REPEAT-CONTAINING PROTEIN” (priority 2011, published 2019).)
